The record followed here is ChEMBL document CHEMBL3352445, “Inhibition of activated STAT5 in Bcr/Abl expressing leukemia cells with new pimozide derivatives” (Bioorg Med Chem Lett, 2014).

In experiment [1] the test system is K562. The experiment is described as follows: Induction of apoptosis in human K562 cells by annexin V/propidium iodide staining-based flow cytometric analysis. For orientation: A flow cytometer gives signals particle by particle.
In experiment [2] the test system is K562. The experiment is described as follows: Cytotoxicity against human K562 cells after 48 hrs by trypan blue dye exclusion test.

Only a part of the results on these compounds is given; other tests are left out.

As a reminder, the AC50 is the concentration giving half of the maximal activity seen. A lower AC50 goes with greater potency. What is called IC50 is the concentration needed to halve the response being measured. For `Oc1nc2ccccc2n1C1CCN(Cc2ccccc2)CC1`, the half-maximal activity concentration (AC50) in experiment [1] is more than 50 µM. The same compound showed an IC50 in experiment [2] of more than 50 µM.
